For one sequence, Kd results are on record in article PMC8269367, “DNA G-Quadruplexes Contribute to CTCF Recruitment”.

The series has as its target T1, CTCF (Mus musculus) (UniProt Q61164).
T1 sequence: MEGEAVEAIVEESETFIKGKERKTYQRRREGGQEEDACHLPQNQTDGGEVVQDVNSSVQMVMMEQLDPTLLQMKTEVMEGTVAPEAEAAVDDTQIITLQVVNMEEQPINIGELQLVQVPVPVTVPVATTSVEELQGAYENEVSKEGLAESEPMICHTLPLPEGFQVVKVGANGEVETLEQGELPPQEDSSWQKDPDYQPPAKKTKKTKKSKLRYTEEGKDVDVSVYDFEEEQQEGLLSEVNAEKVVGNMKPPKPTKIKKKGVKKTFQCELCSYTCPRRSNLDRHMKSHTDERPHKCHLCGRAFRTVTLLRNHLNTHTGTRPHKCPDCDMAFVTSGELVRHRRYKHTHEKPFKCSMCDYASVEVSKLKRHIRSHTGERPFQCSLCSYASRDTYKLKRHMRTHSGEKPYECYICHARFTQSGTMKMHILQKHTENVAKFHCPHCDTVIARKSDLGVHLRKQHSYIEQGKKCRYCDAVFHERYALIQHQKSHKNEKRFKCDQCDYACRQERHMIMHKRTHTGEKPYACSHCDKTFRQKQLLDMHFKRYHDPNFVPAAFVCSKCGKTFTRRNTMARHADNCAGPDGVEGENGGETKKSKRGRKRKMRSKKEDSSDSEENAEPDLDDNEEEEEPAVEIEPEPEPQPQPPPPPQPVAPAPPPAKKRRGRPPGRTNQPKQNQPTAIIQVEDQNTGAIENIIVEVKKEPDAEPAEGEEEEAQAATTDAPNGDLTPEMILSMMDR
As to the kind of experiment: MST. As to conditions: 50 nM labelled protein, 0.61 nM-20 uM oligo, 140 mM potassium phosphate pH 7.2 (6.7 for i-motif N1-3; CTCF oligo CD at pH 6.7), 10 mM NaCl in oligo ….

TGGGGAGGGTGGGGAGGGTGGGGAAGG [MYC-G4] registered a Kd of 140 nM.

For orientation: Kd means the equilibrium constant for the complex coming apart.
